Measured values: patent US10112907B2, “Substituted indazoles for treating tendon and/or ligament injuries” (NOVARTIS AG, priority 2016, dated 2018)

By UniProt entry, the sequences of proteins in these tests, tags left out. Residues count along the entry.
UniProt P29597, 888-1187: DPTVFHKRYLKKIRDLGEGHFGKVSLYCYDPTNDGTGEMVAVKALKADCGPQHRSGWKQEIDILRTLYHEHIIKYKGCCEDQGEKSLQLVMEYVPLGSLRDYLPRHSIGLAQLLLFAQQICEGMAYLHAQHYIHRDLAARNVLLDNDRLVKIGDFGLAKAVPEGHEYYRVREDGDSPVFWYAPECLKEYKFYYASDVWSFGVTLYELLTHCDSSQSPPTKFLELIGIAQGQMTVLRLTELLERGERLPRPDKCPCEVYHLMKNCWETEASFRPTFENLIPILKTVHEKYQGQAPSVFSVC
UniProt O60674, 808-1132: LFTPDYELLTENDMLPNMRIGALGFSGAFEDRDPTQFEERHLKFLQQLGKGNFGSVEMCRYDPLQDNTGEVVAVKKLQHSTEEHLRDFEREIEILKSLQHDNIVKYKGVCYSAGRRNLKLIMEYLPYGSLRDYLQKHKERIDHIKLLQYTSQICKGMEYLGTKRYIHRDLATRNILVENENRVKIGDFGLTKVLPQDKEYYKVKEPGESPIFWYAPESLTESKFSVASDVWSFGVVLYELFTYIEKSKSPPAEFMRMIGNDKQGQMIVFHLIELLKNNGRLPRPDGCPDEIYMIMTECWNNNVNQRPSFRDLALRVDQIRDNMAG

Columns and labels:
[1] = molecular target: recombinant human Tyk2 (aa888-1187) (Homo sapiens (Human), UniProt P29597); assay: Kinase selectivity panel, substrate peptide phosphorylation (Caliper); assay type: biochemical; details: 45 uM ATP
[2] = molecular target: recombinant human Jak2 (aa808-1132) (Homo sapiens (Human), UniProt O60674); assay: as above; assay type: biochemical

Compound | IC50 [1] [µM] | IC50 [2] [µM]
CC[C@@](C)(Nc1ccnc(-c2c[nH]c3ncccc23)n1)C(=O)NCC(F)(F)F [reference compound] | 1.5 | –
O=C(Nc1nc2cccc(-c3ccc(CN4CCS(=O)(=O)CC4)cc3)n2n1)C1CC1 [reference compound] | 0.78 | –
CCS(=O)(=O)N1CC(CC#N)(n2cc(-c3ncnc4[nH]ccc34)cn2)C1 | – | 0.004
